This note sets out measurements from patent US20260382583A1, “LPA1 ANTAGONISTS FOR TREATING INTERSTITIAL LUNG DISEASE” (published 2026).

Data set [1] deals with participants with pulmonary fibrosis. In words: Phase 2 study (IPF and PPF): syncope and day 1 blood pressure. Here is the method: A total of 278 participants with IPF were randomized and 276 participants were treated as of […] analyses data cut-off (4 Aug. 2022). Male and female participants ≥40 years of age with IPF and percent predicted forced vital capacity (ppFVC) >40% and percent predicted DLCO (ppDLCO) >25%; diagnosed within 7 years of screening; having a centrally-read chest HRCT obtained at screening that was consistent with UIP or probable UIP, or having a lung biopsy consistent with UIP were eligible to enter the study. The mean baseline ppFVC for all subjects was 76.5%. In the primary IPF cohort, participants were randomized (1:1:1) to receive 30 mg or 60 mg Compound A or placebo (PBO) twice daily for 26 weeks. Participants were stratified by standard of care (SoC) IPF therapy (pirfenidone versus nintedanib versus none) and region (Japan versus Rest of World) at randomization.
A total of 123 participants with PPF were randomized. Participants (age ≥21 years) were randomized (1:1:1) to receive 30 mg or 60 mg Compound A or PBO twice daily for 26 weeks. […] Immunosuppressive medications (mycophenolate mofetil, mycophenolic acid, azathioprine and/or tacrolimus) were permitted only if dosing is stable for ≥6 months prior to screening. […]

The test system of data set [2] is healthy Japanese participants. Description: Example 2 Part C: MAD study in healthy Japanese participants, blood pressure. The settings on record: 30, 60, 90 mg BID. As for the experimental part: (§1) The study was performed in 3 parts in 112 healthy male and female participants, including 24 Japanese participants. Female participants were to be not of childbearing potential. The present study was designed to evaluate the safety and tolerability, PK, and exploratory PD of an oral suspension of Compound A. Parts A and B (Cohort B1 only) enrolled healthy participants and was conducted at a site in The Netherlands and Part B (Cohort B2 to B5) enrolled healthy non-Japanese participants and was conducted at a site in the United Kingdom (UK). Part C enrolled healthy Japanese participants and was conducted at the same site in the UK.
Part C was a MAD study in 3 sequential dose escalation cohorts (30 mg BID, 60 mg BID, and 90 mg BID) of 8 healthy Japanese participants (6 active+2 placebo) each. Eligible participants in Cohorts C1 to C3 received study drug (Compound A or placebo) administered orally for 14 days.
(§2) Physical examinations, vital sign measurements (including orthostasis testing in Cohort A6, Cohort B3 to B5, and C1 to C3 at selected time points), 12-lead electrocardiogram (ECG), and clinical laboratory evaluations were performed at selected times throughout the study. […] Participants were closely monitored for adverse events (AEs). […]

Data set [3] relates to healthy participants. In words: Example 2 Part B: multiple ascending dose (MAD) study in healthy participants, blood pressure. Here is the method:
as §1
Part B was a MAD study in a planned number of 6 sequential dose escalation cohorts (10 mg QD, 30 mg QD, 30 mg BID, 60 mg BID, 125 mg BID, and ≤250 mg BID) of 8 healthy participants (6 active+2 placebo) each, under fasted conditions. However, Cohort B6 (≤250 mg BID) was cancelled because sufficient safety and PK data had been obtained at doses up to 125 mg BID. Eligible participants received study drug (Compound A or placebo) administered orally for 14 days.
Physical examinations, vital sign measurements (including orthostasis testing in Cohort A6, Cohort B3 to B5, and C1 to C3 at selected time points), 12-lead electrocardiogram (ECG), and clinical laboratory evaluations were performed at selected times throughout the study. In addition, Holter monitoring was performed for the first 24 hours post dose on Day 1 in Part A (not in FE/pH cohort), and also for the first 24 hours post dose on Day 1 and Day 14 in Parts B and C. Participants were closely monitored for adverse events (AEs). Blood samples were collected for up to 14 days (follow-up visit) after (last) study drug administration for PK analysis. In addition, blood and urine were collected for exploratory biomarker assessments and for biobanking of samples for potential analyses. […]

The test system of data set [4] is healthy participants. Description: Example 2 Part A: single ascending dose (SAD) study in healthy participants, blood pressure and safety. Here is the method: as §1
Part A was an SAD study in a planned number of 6 sequential dose escalation cohorts (3, 10, 30, 100, 150, or 250 mg) of 8 healthy participants (6 active+2 placebo) each, under fasted conditions. Eligible participants in Part A (excluding those in Cohort A7 [food effect (FE)/pH cohort]) received a single administration of study drug (Compound A or placebo) under fasted conditions. In Cohort A1 to Cohort A6, sentinel dosing was employed (1 active+1 placebo, followed after 48 hours by the remaining participants of the cohort [5 active+1 placebo]). However, in Cohort A6 (250 mg) only the 2 sentinel participants were dosed before discontinuing further enrollment, due to dose-limiting events observed in a sentinel participant. In addition to the 6 ascending dose cohorts, a cohort of 6 healthy participants (Cohort A7; 6 active, 100 mg Compound A) was included to assess the effect of food and pH on the bioavailability of Compound A in a 3-period, open-label, fixed-sequence, crossover design (FE/pH cohort).
as §2

Take `CCCN(C)C(=O)OCc1c(-c2ccc(O[C@H]3CCC[C@H](C(=O)O)C3)c(C)n2)nnn1C`: the “Post-dose reductions in SBP on Day 1” value in data set [1] (30 and 60 mg arms) was “self-limited and not associated with any clinical sequelae”. Further, in data set [1] (30 or 60 mg BID, Phase 2), the “Reductions in BP with first dose” value is “Reductions in BP were noted with first dose administration”. For the same molecule, in data set [2], the “BP reduction trend, Japanese MAD cohorts” value is given as “no clear Compound A dose-dependent BP reduction trend”. Moreover, the “BP reductions in QD groups” value in the data set on healthy participants [3] (10 and 30 mg QD) is “reductions generally occurred in a Compound A dose-dependent manner”. In addition, in the data set with healthy participants [3] (30, 60, 125 mg BID), the “BP reductions in BID groups vs placebo” value was “no clear differences between placebo and the Compound A groups”. Also, the “Magnitude of BP reductions with repeated dosing” value with healthy participants [3] (14 days) was “no clear changes in the magnitude of BP reductions with repeated dosing over the 14-day treatment period”. Moreover, in the data set with healthy participants [4] (100 mg fasted (food effect cohort), Day 1, 4 h), the “Mean SBP” value is listed as 103,8 mmHg. In the data set with healthy participants [4] (SAD cohorts), the “Decrease in SBP and DBP” value was “decreased SBP and DBP dose dependently, reversibly, and mostly asymptomatically”; the “Effect on heart rate” value is “minimal effect on heart rate”.
